{"sequences": {"note": "The chains behind the UniProt entries cited, without tags or fusion partners. Residues count along the entry.", "UniProt P25092, 24-1073": "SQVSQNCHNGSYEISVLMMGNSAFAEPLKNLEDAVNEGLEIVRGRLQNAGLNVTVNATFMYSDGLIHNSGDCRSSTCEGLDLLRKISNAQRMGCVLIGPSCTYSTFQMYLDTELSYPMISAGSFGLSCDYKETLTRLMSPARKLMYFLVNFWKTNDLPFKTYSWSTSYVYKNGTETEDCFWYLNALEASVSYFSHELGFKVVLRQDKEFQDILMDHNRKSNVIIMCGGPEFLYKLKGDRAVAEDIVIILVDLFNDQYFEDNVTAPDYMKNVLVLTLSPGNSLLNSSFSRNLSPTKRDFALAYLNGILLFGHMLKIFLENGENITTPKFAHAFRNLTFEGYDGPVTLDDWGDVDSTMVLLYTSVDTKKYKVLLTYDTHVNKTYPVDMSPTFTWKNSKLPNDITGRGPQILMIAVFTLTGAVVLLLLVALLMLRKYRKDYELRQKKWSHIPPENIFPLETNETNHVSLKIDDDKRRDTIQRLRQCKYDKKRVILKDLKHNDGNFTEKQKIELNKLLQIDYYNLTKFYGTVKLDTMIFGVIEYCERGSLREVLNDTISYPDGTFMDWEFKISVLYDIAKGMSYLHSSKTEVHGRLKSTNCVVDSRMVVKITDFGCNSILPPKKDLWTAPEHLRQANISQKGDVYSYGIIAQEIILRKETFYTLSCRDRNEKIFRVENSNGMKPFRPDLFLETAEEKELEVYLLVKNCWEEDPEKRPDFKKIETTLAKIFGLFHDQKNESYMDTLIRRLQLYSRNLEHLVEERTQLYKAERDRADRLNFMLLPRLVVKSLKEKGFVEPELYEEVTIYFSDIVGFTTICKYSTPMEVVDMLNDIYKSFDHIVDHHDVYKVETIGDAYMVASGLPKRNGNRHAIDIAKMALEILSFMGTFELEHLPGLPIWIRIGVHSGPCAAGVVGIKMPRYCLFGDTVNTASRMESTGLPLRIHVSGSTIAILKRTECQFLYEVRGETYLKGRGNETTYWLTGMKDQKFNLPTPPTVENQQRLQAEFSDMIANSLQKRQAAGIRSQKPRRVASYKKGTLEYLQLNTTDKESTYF"}, "source": "patent US8933030B2", "about": "“Treatments for gastrointestinal disorders” (Ironwwod Pharmaceuticals, Inc., priority 2010, dated 2015)", "key": {"[1]": {"target": "T1, guanylate cyclase-C (GC-C) (Homo sapiens, UniProt P25092)", "test": "cGMP response in T84 cells (GC-C agonist activity)", "type": "cell-based", "parameters": "tested for guanylate cyclase-C (GC-C) agonist activity in T84 cells; endogenous in cells; host or cells: T84 cells", "method": "Linaclotide and Cys1-IMD were tested for guanylate cyclase-C (GC-C) agonist activity in T84 cells as follows. In each well of a 96-well plate, approximately 200,000 T84 cells/well was first incubated with 1 mM 3-isobutyl-1-methylxanthine (IBMX) in 0.18 mL of Dulbecco's modified Eagle's medium (DMEM) for 10 minutes at 37° C. Each peptide was diluted to final concentrations ranging from 0.1 to 10,000 nM, and 0.02 mL of each dilution was added in duplicate to a 96-well plate containing the T84 cells, for a final volume of 0.20 mL per well. The peptide reactions were incubated for 30 min at 37° C. Following the incubation, the supernatants were removed and discarded and the cells were lysed with cold 0.1 M hydrochloric acid (HCl) for 30 min on ice. The cell debris was removed by centrifugation and the concentration of guanosine 3′,5′-cyclic monophosphate (cyclic GMP) in each lysate was determined using liquid chromatography with tandem mass spectrometry. The data were used to construct dose-response curves and calculate half-maximal effective concentration (EC50) values for each test article."}, "[2]": {"target": "T1, guanylate cyclase-C (GC-C)", "test": "Competitive radioligand ([125I]-pSTa) binding assay on T84 cells", "parameters": "cell-surface GC-C receptors on human colonic epithelial (T84) cells; endogenous in cells; host or cells: T84 human colonic epithelial cells", "settings": "competition with 170 pM [125I]-pSTa for cell-surface GC-C receptors on T84 cells; read-out: inhibition constant (Ki), relative binding affinity", "method": "The relative binding affinities of linaclotide and Cys1-IMD to the guanylate cyclase-C receptor (GC-C) were determined using a competitive-binding assay in which the peptides competed with a known GC-C agonist, porcine-derived heat-stable enterotoxin (pSTa), for binding sites on cell-surface GC-C receptors on human colonic epithelial (T84) cells. The pSTa was radiolabeled with ^125I to enable measurement of its receptor binding. The competitive-binding assay was performed by adding various concentrations of each peptide (0.1 to 3,000 nM) to 0.20 mL reaction mixtures containing Dulbecco's modified Eagle's medium (DMEM), 0.5% bovine serum albumin (BSA), 2.0×10^5 T84 cells, and 170 pM [^125I]-pSTa (200,000 cpm). The data were used to construct competitive radioligand-binding curves and determine the relative binding affinities of linaclotide and Cys1-IMD, as measured by their IC50 and Ki values."}}}
{"smiles": "C[C@@H]1NC(=O)[C@@H]2CCCN2C(=O)[C@H](CC(N)=O)NC(=O)[C@@H]2CSSC[C@@H]3NCN(C3=O)[C@H]3CSSC[C@H](NC1=O)C(=O)N[C@@H]([C@@H](C)O)C(=O)NCC(=O)N[C@H](C(=O)N[C@@H](Cc1ccc(O)cc1)C(=O)O)CSSC[C@H](NC(=O)[C@H](Cc1ccc(O)cc1)NC(=O)[C@H](CCC(=O)O)NC3=O)C(=O)N2", "note": "[Cys1-IMD]", "values": [{"measurement": "EC50", "setting": "[1]", "result": "0.172 ± 0.032", "unit": "µM"}, {"measurement": "Ki", "setting": "[2]", "result": "0.0014 ± 0.0005", "unit": "µM"}]}
